System: MDR1
Assay type: cell-based, human

O=C(O)CCCc1ccc(N(CCCl)CCCl)cc1 [chlorambucil]
maintenance of MDR1 expression after removal of the drug (K562 cells treated 3-5 days, then grown in absence of drug): least several weeks
MDR1 induction, mRNA and protein levels (human leukemia and solid-tumor derived cell lines, subpopulation of treated cells): MDR1 induction, both at the mRNA and at the protein levels, was observed

Source: patent publication US5972598A, “Methods for preventing multidrug resistance in cancer cells” (priority 1995, dated 1999)
